The assay has as its target human FLAP (Homo sapiens (Human), UniProt P20292). The experiment in a line: FLAP binding assay (HTRF format). Here is the method: The ability of the compounds of the present invention to treat a FLAP-mediated disease and/or disorder, or associated symptoms or complications thereof, was determined using the following procedures. Binding assay data represent the average value obtained from two different assay plates, with samples run in duplicate on each plate. Human whole blood assay data represent a single replicate on an assay plate using whole blood from at least one healthy donor.
Data are expressed as a HTRF ratio.

Sequences of proteins named here, by UniProt entry; tags and fusion partners are left off. A change or cut given only in a name is not applied to a line headed by its entry.
UniProt P20292: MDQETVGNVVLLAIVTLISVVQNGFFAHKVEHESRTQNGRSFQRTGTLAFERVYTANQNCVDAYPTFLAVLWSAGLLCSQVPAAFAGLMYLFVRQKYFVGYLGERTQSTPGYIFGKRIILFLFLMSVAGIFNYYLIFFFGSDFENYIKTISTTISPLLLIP

Where [1] appears, read: Table 6 (additional runs), human FLAP wild type, HTRF, read-out: FLAP Binding wild type HTRF Ki.

Where two headings read alike, the source gives them in different places.

As a reminder, the Ki is the dissociation constant of the complex between target and ligand, obtained from inhibition or displacement. Regarding `Nc1cnc(-c2ccc(-c3ccccc3S(=O)(=O)N3CCCC(O)C3)cc2F)cn1` (racemic) [Example 70, racemic 1-{[4′-(5-Aminopyrazin-2-yl)-3′-fluorobiphenyl-2-yl]sulfonyl}piperidin-3-ol], the Ki under setting [1] came to 2.3 nM.
Regarding `Nc1cnc(-c2ccc(-c3ccccc3S(=O)(=O)N3CCCC(CO)C3)cc2F)cn1` (racemic) [Example 76, racemic (1-{[4′-(5-Aminopyrazin-2-yl)-3′-fluorobiphenyl-2-yl]sulfonyl}piperldin-3-yl)methanol], the Ki under setting [1] stood at 1.7 nM.
`C[C@H](CC#N)NS(=O)(=O)c1ccccc1-c1ccc(-c2cnc(N)cn2)c(F)c1` [Example 170, (R)-4′-(5-aminopyrazin-2-yl)-N-(1-cyanopropan-2-yl)-3′-fluoro-[1,1′-biphenyl)-2-sulfonamide] gave an inhibition constant (Ki) of 1.3 nM.
In the case of `CC(CO)NS(=O)(=O)c1ccccc1-c1ccc(-c2cnc(N)cn2)c(F)c1` (stereo in doubt) [Example 32, 4′-(5-Aminopyrazin-2-yl)-3′-fluoro-N-[(1S)-2-hydroxy-1-methylethyl]piphenyl-2-sulfonamide], under setting [1], the Ki worked out at 6.2 nM.
Regarding `C[C@@H](CO)NS(=O)(=O)c1ccccc1-c1ccc(-c2cnc(N)cn2)c(F)c1` [Example 25, (R)-4′-(5-Aminopyrazin-2-yl)-3′-fluoro-N-[(1R)-2-hydroxy-1-methylethyl]piphenyl-2-sulfonamicie], under setting [1], the Ki was determined as 3.2 nM.
For `Nc1cnc(-c2ccc(-c3ccccc3S(=O)(=O)N3CC[C@H](N)C3)cc2F)cn1` [Example 93, (S)-5-(2′-((3-aminopyrrolidin-1-yl)sulfonyl)-3-fluoro-[1,1′-biphenyl]-4-yl)pyrazin-2-amine], under setting [1], the Ki worked out at 83.3 nM.
Regarding `C[C@H](NS(=O)(=O)c1ccccc1-c1ccc(-c2cnc(N)cn2)c(F)c1)c1ccccc1` [Example 24, (R)-4′-(5-Aminopyrazin-2-yl)-3′-fluoro-N-[(1R)-1-phenylethyl]biphenyl-2-sulfonamide], under setting [1], the Ki came to 2.3 nM.
As to `Nc1cnc(-c2ccc(-c3ccccc3S(=O)(=O)N[C@H]3CCCCNC3=O)cc2F)cn1` (stereo in doubt) [Example 28, (S)-4′-(5-Aminopyrazin-2-yl)-3′-fluoro-N-[(3S)-2-oxoazepan-3-yl]biphenyl-2-sulfonamide], under setting [1], the Ki amounted to 82.2 nM.
Consider `Nc1cnc(-c2ccc(-c3ccccc3S(=O)(=O)N3CC[C@@H](N)C3)cc2F)cn1` [Example 92, (R)-5-(2′-((3-aminopyrrolidin-1-yl)sulfonyl)-3-fluoro-[1,1′-biphenyl]-4-yl)pyrazin-2-amine], for which the Ki under setting [1] was 280 nM.

Values taken from patent US9745328B2, “Flap modulators” (JANSSEN PHARMACEUTICA NV, priority 2013, dated 2017).
